Results taken from ChEMBL document CHEMBL4043061, “Potent, Selective, Allosteric Inhibition of Human Plasmin by Sulfated Non-Saccharide Glycosaminoglycan Mimetics” (J Med Chem, 2017).
pIC50, pKd: −log10 of the molar value.

By UniProt entry, the sequences of proteins in these tests, tags left out. Residues count along the entry.
UniProt P00747, 97-580 limits assumed: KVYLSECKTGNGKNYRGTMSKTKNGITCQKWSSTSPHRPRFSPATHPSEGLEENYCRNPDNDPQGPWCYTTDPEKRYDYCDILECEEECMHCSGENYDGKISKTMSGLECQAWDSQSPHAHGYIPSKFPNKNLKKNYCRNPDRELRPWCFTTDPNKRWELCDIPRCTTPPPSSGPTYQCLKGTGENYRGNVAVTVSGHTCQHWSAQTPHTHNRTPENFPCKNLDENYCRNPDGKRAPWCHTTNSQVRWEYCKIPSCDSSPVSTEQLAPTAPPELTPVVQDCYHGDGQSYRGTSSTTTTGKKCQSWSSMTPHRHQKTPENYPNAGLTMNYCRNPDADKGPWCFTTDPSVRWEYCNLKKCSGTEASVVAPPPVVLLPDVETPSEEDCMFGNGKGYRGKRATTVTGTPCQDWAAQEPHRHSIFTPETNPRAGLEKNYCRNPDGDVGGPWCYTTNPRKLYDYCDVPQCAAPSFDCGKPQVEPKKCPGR
UniProt P00747, 581-810 limits assumed: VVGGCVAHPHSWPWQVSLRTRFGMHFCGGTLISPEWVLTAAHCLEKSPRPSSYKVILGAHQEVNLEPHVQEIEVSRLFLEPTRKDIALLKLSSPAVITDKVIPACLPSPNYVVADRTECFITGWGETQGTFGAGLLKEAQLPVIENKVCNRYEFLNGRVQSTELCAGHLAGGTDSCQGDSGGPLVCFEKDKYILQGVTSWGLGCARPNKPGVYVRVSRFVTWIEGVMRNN

Assays:
Plasminogen [1] = molecular target: T1, Plasminogen (Homo sapiens, UniProt P00747)
Plasminogen [2] = molecular target: T1, Plasminogen; remark: listed apart in the source
Plasminogen [3] = molecular target: T1, Plasminogen; remark: listed apart in the source
Plasminogen [4] = molecular target: T1, Plasminogen; assay: Binding affinity to human dansyl-EGR-chloromethylketone-plasmin complex assessed as loss of intrinsic tryptophan fluorescence by spectrofluorometric method
Plasminogen [5] = molecular target: T1, Plasminogen; remark: listed apart in the source
Plasminogen [6] = molecular target: T1, Plasminogen; assay: Allosteric inhibition of full length human plasmin by using chromogenic substrate spectrozyme PL preincubated for 5 mins followed by substrate addition by spectrophotometric method
Summary of the method: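 Plasmin ~25 nM final in 20 mM Tris-HCl pH 7.4 (100 mM NaCl, 2.5 mM CaCl2, 0.1% PEG8000, 0.02% Tween80), 37 °C. Inhibitor added from 0–20 mM aqueous stocks, or vehicle. After 5 min, Spectrozyme PL added (1 mM stock). Residual activity taken from initial rate of A405 rise. Logistic fit gives IC50, efficacy and Hill slope.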

Plasminogen [7] = molecular target: T1, Plasminogen; assay: Binding affinity to human plasmin assessed as loss of intrinsic tryptophan fluorescence at 250 uM by spectrofluorometric method
Summary of the method: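 Intrinsic tryptophan fluorescence titration (ex 280 nm, em 348 nm) at 37 °C in 20 mM Tris-HCl pH 7.4 with 100 mM NaCl, 2.5 mM CaCl2, 0.1% PEG8000. Aliquots of 250 µM aqueous inhibitor added to 160 nM plasmin. Fractional fluorescence change fitted by quadratic binding equation for KD and maximal change. Run in triplicate.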

Plasminogen [8] = molecular target: T1, Plasminogen; remark: listed apart in the source
Plasminogen [9] = molecular target: T1, Plasminogen; remark: listed apart in the source
Plasminogen [10] = molecular target: T1, Plasminogen; remark: listed apart in the source
Plasminogen [11] = molecular target: T1, Plasminogen; remark: listed apart in the source

## O=c1c(OS(=O)(=O)O)c(-c2ccc(OS(=O)(=O)O)c(OS(=O)(=O)O)c2)oc2cc(OS(=O)(=O)O)cc(OCc3ccc(COc4cc(OS(=O)(=O)O)cc5oc(-c6ccc(OS(=O)(=O)O)c(OS(=O)(=O)O)c6)c(OS(=O)(=O)O)c(=O)c45)cc3)c12
Plasminogen [1]
  pIC50: 5.21
Plasminogen [2]
  pIC50: 5.34
Plasminogen [3]
  pIC50: 5.06
Plasminogen [4]
  pKd: 5.36
Plasminogen [5]
  pIC50: 4.59
Plasminogen [6]
  pIC50: 5.14 to 5.20
Plasminogen [7]
  pKd: 6.15
Plasminogen [8]
  pIC50: 5.44
Plasminogen [9]
  pIC50: 4.98
Plasminogen [10]
  pIC50: 5.55
Plasminogen [11]
  pIC50: 4.85
